Source: ChEMBL document CHEMBL2429835

Test: Selectivity index, ratio of IC50 for african green monkey Vero cells to MIC90 for Mycobacterium tuberculosis H37Rv ATCC 27294 by microplate Alamar blue assay
Type: functional
In short: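 Computed as Vero IC50 divided by the MABA MIC against H37Rv.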

Structure (SMILES) | Selectivity Index
NNC(=O)c1ccncc1 [ISONIAZID] | >3333
CO[C@H]1/C=C/O[C@@]2(C)Oc3c(C)c(O)c4c(O)c(c(/C=N/N5CCN(C)CC5)c(O)c4c3C2=O)NC(=O)/C(C)=C\C=C\[C@H](C)[C@H](O)[C@@H](C)[C@@H](O)[C@@H](C)[C@H](OC(C)=O)[C@@H]1C [RIFAMPIN] | >1250
